Structures are written as SMILES.

For the assay, the target named is CDK2/CycE (Homo sapiens (Human), UniProt P24941). The experiment in a line: biochemical. The settings on record: CDK2: CDK2/CycE kinase assay IC50.
Take `COc1cc(F)ccc1-c1nc(Nc2cc(F)c(F)c(CS(C)(=O)=NC#N)c2)ncc1F` (racemic) [Example 24, (rac)-[(2,3-Difluoro-5-{[5-fluoro-4-(4-fluoro-2-methoxyphenyl)pyrimidin-2-yl]amino}benzyl)-(methyl)oxido-λ^6-sulfanylidene]cyanamide]: it took 73 nM to reach half-maximal inhibition (IC50). In other words, the double-digit nanomolar range.
Then `COc1cc(F)ccc1-c1nc(Nc2cc(CS(C)(=N)=O)cc(C(F)(F)F)c2)ncc1F` (racemic) [Example 41, (rac)-5-Fluoro-4-(4-fluoro-2-methoxyphenyl)-N-[3-[(S-methylsulfonimidoyl)methyl]-5-(trifluoro-methyl)phenyl]pyrimidin-2-amine], with 180 nM.
For `CCS(=O)(Cc1cc(F)cc(Nc2ncc(F)c(-c3ccc(F)cc3OC)n2)c1)=NC#N` (racemic) [Example 42, (rac)-[Ethyl(3-fluoro-5-{[5-fluoro-4-(4-fluoro-2-methoxyphenyl)pyrimidin-2-yl]amino}benzyl)-oxido-λ^6-sulfanylidene]cyanamide], half-maximal inhibition (IC50) required 160 nM.
In the case of `COc1cc(F)ccc1-c1nc(Nc2cc(CS(C)(=O)=NC#N)cc(C(F)(F)C(F)(F)F)c2)ncc1F` (racemic) [Example 46, (rac)-{[3-{[5-Fluoro-4-(4-fluoro-2-methoxyphenyl)pyrimidin-2-yl]amino}-5-(pentafluoroethyl)-benzyl](methyl)oxido-λ^6-sulfanylidene}cyanamide], the IC50 (commonly the point on the concentration scale where inhibition reaches its midpoint) came out at 630 nM.
In turn, `CS(=N)(=O)Cc1cccc(Nc2ncc(F)c(-c3ccc(F)cc3OCc3ccc(F)cc3)n2)c1` (racemic) [Example 55, (rac)-5-Fluoro-4-[4-fluoro-2-[(4-fluorobenzyl)oxy]phenyl]-N-[3-{(S-methylsulfonimidoyl)methyl]-phenyl}pyrimidin-2-amine] gave a half-inhibitory concentration (IC50) of 770 nM.
On to `COc1cc(F)ccc1-c1nc(Nc2cc(C)cc(CS(C)(=O)=NC#N)c2)ncc1F` (racemic) [Example 58, (rac)-[(3-{[5-Fluoro-4-(4-fluoro-2-methoxyphenyl)pyrimidin-2-yl]amino}-5-methylbenzyl)(methyl)-oxido-λ^6-sulfanylidene]cyanamide], for which the IC50 came out at 220 nM.

Values taken from patent US9133171B2 (priority 2011, dated 2015).
